{"sequences": {"note": "The chains behind the UniProt entries cited, without tags or fusion partners. Residues count along the entry.", "UniProt P01308, 25-54 limits assumed, species assumed": "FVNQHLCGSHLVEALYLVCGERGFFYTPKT", "UniProt P01308, 90-110 limits assumed, species assumed": "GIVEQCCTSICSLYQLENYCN"}, "source": "patent US6576261B1", "about": "“Potentiation of inclusion complex formation of cyclodextrin derivatives” (priority 1999, dated 2003)", "molecular_target": "insulin (Homo sapiens, UniProt P01308)", "assay": "Stabilization and solubilization of insulin by highly methylated cyclodextrins", "details": "cyclodextrins at 2 or 4% in phosphate buffered solution, insulin 1 mg/ml, final pH less than 6"}
{"substance": "insulin", "values": [{"measurement": "cooperative effects of two hosts", "value": "No cooperative effects were found"}]}
